The target of the test is T1, rat mGlu1a receptor (Rattus norvegicus, UniProt P23385).
T1 construct: host or cells: CHO-dhfr- cells
Nature of the test: [3H]Compound A binding to rat mGlu1a receptor CHO-dhfr− membranes (saturation, kinetics, inhibition). To be noted: 30 min incubation, n=3.

The chains behind the UniProt entries cited, without tags or fusion partners. Residues count along the entry.
UniProt P23385, 19-1199: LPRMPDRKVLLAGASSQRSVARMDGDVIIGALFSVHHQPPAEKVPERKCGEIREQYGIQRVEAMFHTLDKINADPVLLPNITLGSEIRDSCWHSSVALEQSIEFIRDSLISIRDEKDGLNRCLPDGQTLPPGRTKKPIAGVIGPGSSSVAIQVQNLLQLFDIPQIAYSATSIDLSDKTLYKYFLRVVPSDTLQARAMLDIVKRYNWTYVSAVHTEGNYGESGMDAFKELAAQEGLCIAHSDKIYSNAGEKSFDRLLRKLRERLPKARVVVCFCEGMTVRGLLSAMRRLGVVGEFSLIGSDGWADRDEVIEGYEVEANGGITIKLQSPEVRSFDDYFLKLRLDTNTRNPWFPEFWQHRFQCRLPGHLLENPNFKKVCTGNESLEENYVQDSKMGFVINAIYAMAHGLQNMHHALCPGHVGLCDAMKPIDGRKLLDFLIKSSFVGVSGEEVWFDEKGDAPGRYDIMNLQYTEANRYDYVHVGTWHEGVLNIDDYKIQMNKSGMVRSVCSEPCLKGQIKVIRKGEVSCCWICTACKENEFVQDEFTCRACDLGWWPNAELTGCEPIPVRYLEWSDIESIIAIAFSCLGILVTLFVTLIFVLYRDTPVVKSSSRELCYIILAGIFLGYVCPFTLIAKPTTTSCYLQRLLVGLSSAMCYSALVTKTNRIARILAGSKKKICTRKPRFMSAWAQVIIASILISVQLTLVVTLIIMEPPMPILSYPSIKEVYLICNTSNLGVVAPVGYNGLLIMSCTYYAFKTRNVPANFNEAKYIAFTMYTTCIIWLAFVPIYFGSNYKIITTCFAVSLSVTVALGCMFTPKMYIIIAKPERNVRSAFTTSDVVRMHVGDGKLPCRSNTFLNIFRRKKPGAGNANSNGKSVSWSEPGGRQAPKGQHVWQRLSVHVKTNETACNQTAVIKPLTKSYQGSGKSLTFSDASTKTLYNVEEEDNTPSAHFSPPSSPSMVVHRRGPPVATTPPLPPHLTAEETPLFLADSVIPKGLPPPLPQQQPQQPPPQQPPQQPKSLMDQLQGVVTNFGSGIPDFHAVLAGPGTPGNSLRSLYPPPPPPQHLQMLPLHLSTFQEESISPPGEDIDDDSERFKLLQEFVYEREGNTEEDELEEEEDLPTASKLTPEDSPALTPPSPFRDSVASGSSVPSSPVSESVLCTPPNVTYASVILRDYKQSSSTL

For `[3H]c1ccc(CC(=O)c2ccc3nc4c(cc3c2)CCCO4)cc1` [[^3H]Compound A], the Bmax is listed as 6512±1501 fmoles/mg of protein.

(Values after US7517517B2 (Janssen Pharmaceutica N.V., priority 2002, dated 2009).)
